Assays:
[1] = species on record: Homo sapiens; experiment: Ratio of pKi for human cloned 5HT2A receptor to pKi for human cloned dopamine D2 receptor
[2] = molecular target: D(1A) dopamine receptor (Homo sapiens, UniProt P21728)

Amino acid sequences for entries named in this document (tags omitted).
UniProt P21728, whole entry: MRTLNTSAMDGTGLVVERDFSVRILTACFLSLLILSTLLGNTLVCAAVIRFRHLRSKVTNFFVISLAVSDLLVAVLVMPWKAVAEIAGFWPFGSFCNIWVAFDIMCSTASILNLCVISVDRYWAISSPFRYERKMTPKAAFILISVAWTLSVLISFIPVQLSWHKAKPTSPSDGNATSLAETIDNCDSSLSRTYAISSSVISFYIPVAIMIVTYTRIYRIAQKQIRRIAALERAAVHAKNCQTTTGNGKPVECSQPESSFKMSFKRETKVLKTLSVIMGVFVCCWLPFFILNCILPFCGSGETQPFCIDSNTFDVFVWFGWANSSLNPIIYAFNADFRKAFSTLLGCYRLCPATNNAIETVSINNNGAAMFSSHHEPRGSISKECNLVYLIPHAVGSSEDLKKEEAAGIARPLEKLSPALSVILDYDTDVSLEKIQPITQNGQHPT

## CSc1ncc2c(n1)CC(CN1CCC(c3noc4cc(F)ccc34)CC1)CC2=O (configuration not stated)
[1]
  Ratio pKi: 1.11
[2]
  Ki: 0.0331 µM

From ChEMBL document CHEMBL1154195, “Synthesis and binding affinity of potential atypical antipsychotics with the tetrahydroquinazolinone motif” (Bioorg Med Chem Lett, 2009)
